1 compound from patent publication US20130202629A1, “USES OF PHOSPHOLIPID CONJUGATES OF SYNTHETIC TLR7 AGONISTS” (The Regents of the University of California, priority 2010, published 2013) can be followed below.

Where “and” joins values, the source holds several entries; their conditions need not be identical. Identical values can stand only once.

In this experiment the target is T1, TLR7 (Homo sapiens, UniProt Q9NYK1).
T1 sequence (Q9NYK1 27-1049): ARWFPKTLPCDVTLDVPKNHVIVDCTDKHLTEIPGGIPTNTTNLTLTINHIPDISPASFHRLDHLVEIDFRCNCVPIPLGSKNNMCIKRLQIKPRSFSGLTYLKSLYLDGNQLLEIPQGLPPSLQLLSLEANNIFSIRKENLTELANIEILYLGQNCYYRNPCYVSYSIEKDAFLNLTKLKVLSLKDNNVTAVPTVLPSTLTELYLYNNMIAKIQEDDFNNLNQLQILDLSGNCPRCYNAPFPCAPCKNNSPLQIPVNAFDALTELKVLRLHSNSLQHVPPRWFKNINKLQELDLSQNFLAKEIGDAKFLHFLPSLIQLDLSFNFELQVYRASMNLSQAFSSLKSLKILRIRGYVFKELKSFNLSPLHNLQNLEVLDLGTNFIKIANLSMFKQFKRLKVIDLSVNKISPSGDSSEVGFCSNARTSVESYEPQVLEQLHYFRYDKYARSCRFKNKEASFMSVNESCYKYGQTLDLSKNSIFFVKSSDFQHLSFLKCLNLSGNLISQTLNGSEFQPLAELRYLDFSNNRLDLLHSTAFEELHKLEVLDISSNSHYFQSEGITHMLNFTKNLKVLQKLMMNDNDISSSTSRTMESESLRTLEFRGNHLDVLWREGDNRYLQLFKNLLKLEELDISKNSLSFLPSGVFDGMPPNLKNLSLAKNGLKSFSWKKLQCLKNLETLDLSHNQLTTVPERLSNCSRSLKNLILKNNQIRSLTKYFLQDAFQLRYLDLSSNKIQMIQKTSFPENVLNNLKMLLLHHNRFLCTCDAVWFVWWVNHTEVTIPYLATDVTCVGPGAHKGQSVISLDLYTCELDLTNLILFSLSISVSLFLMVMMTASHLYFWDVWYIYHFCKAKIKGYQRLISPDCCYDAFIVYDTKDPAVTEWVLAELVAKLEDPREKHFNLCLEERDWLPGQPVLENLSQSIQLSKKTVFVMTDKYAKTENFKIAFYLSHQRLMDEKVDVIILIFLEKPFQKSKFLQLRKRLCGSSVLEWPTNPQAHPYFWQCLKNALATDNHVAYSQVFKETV
Briefly: Cytokine induction (IL-6, IFNalpha1; Luminex) in human PBMC. The settings on record: 18 hours, IL-6 (FIG. 3A). It counts as cell-based.

With `COCCOc1nc(N)c2nc(O)n(Cc3ccccc3)c2n1` [SM, 9-benzyl-8-hydroxy-2-(2-methoxyethoxy) adenine, reference compound], the “order of TLR7 conjugate potency” value is “(4b)>(6)>(9)>/=SM>(8) and 4b>6>9>SM=8”.
